From US11220527B2, “Peptides derived from the propeptide NTSR3 and their use in the treatment of depression” (CENTRE NATIONAL DE LA RECHERCHE SCIENTIFIQUE, priority 2016, dated 2022)

Legend:
insulin secretion = conditions: Hivelin et al. 2016 [27]; cited from earlier work
TREK-1 channel [1] = molecular target: T1, TREK-1 channel (Homo sapiens, UniProt O95069); experiment: Whole-cell patch clamp of TREK-1 channel activity in hTREK-1/HEK293 cells; assay type: cell-based; design: expressed in transfected cells; conditions: dose-response measured at 0 mV, sigmoidal fit, FIG. 2; read-out: half-effect concentration (IC50) of TREK-1 channel activity inhibition
T1 sequence (O95069 1-426): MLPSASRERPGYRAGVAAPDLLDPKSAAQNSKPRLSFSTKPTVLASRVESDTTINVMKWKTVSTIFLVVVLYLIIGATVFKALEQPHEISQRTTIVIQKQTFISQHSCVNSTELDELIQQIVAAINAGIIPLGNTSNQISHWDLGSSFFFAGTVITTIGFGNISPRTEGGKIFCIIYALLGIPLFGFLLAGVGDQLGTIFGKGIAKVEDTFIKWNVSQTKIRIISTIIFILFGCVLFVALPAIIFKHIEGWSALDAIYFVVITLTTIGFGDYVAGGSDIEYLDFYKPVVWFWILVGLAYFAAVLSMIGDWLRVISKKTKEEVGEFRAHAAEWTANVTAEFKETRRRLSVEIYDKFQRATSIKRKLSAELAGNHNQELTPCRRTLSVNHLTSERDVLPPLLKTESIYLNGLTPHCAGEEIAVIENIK
Description: (§1) All experiments measuring the effect of spadin analogs and spadin were performed on ßTC3 or LNCaP or HEK293 cells stably transfected with the TREK-1 channel, hTREK-1/HEK293. The hTREK-1/HEK293 cell line was prepared in the laboratory. These cells also express a reporter gene: E-Green Fluorescent Protein (EGFP) enabling their visualization.
These cells were seeded at a density of 20,000 cells/dish of 35 mm diameter, 24 to 72 hours before being used.
The HEK293 cells were cultured in DMEM medium (Gibco)/10% fetal calf serum (FCS, ICN)/1% streptomycin+penicillin mixture (Gibco)/1% glutamax (Gibco)/0.5 mg/mL of G418 (Sigma) at 37° C. in the presence of 5% CO2.
(§2) The LNCaP cells were cultured in DMEM medium (Gibco)/10% fetal calf serum (FCS, ICN)/1% streptomycin+penicillin mixture (Gibco)/1% glutamax (Gibco)/at 37° C. in the presence of 5% CO2. […] From day 2 to day 4, the cells were measured by electrophysiological methods.
(§3) All measurements were made at room temperature, i.e. at 21-22° C. The hTREK-1/HEK293 cells were identified by the fluorescence emitted by EGFP after excitation at 480 nm. […]
(§4) The cell culture medium was replaced with a solution 150 mM NaCl, 5 mM KCl, 3 mM MgCl2, 1 mM CaCl2, 10 mM HEPES/NaOH pH 7.4 containing 10 mM tetraethylammonium chloride, 3 mM 4-aminopyridine. […] The resting potential of the membrane of the measured cell was set at −80 mV. […]

[2] = cited from earlier work
TREK-1 channel [3] = molecular target: T1, TREK-1 channel; conditions: previously shown; cited from earlier work
[4] = molecular target: T2, TREK-1 channels expressed on the ßTC3 cells (Mus musculus, UniProt P97438); experiment: Whole-cell patch clamp, I=f(V), on ßTC3 cells activated with arachidonic acid; assay type: cell-based; conditions: previously activated with arachidonic acid, FIG. 7A
T2 construct: TREK-1 channels are present on the surface of beta-pancreatic cells such as beta-TC3 cells; endogenous in cells; host or cells: ßTC3 cells
T2 sequence (P97438 1-426): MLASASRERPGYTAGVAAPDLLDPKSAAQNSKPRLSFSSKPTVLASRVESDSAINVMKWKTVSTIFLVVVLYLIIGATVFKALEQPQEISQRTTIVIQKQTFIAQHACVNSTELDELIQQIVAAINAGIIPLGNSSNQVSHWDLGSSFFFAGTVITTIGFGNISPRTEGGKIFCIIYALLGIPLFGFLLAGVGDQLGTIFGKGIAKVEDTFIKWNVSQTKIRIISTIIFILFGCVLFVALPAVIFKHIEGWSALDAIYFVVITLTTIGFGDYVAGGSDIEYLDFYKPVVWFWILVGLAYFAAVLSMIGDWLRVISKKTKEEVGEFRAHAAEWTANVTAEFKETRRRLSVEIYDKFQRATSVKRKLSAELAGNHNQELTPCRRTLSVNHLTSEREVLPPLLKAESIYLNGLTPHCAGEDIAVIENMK
Description: as §1
The ßTC3 cells were cultured in RPMI 1640 medium supplemented with 2.5% FCS, 50 μM beta-mercaptoethanol, 10 mM HEPES, 1 mM sodium pyruvate, 50 μg/ml gentamycin and 1% of a streptomycin+penicillin mixture, at 37° C. in the presence of 5% CO2.
as §2, §3, §4

CC[C@H](C)[C@H](NC(=O)[C@@H]1CCCN1C(=O)CNC(=O)[C@H](CO)NC(=O)[C@H](Cc1c[nH]c2ccccc12)NC(=O)[C@H](CCCNC(=N)N)NC(=O)[C@@H]1CCCN1C(=O)[C@H](CC(C)C)NC(=O)[C@@H]1CCCN1C(=O)[C@H](C)NC(=O)[C@@H](N)Cc1ccc(O)cc1)C(=O)NCC(=O)N[C@H](C(=O)N[C@@H](CO)C(=O)N[C@@H](Cc1c[nH]c2ccccc12)C(=O)NCC(=O)N[C@@H](CC(C)C)C(=O)N[C@@H](CCCNC(=N)N)C(=O)O)C(C)C [spadin]
insulin secretion further to hyperglycemia (insulin secretion): increase insulin secretion
IC50 (TREK-1 channel [1]): 40 nM
antidepressant behaviour in rodent models of depression ([2]; previously shown [17]): behaves as an antidepressant
time to antidepressant effect ([2]; previously shown, 21 days for conventional antidepressants): 4 days
blocking of TREK-1 channel activity (TREK-1 channel [3]): specifically blocks TREK-1 channels
blocking of arachidonic acid (aa) activated TREK-1 / potassium currents on ßTC3 cells [4]: capable of blocking the TREK-1 channels
